# Binding of CDR-mutated scFvs to a peptide of the spike HR2 region

From the AlphaSeq antibody data of Li et al. 2023 (doi:10.1038/s41467-023-39022-2), copy in the FLAb collection.

Target peptide (SARS-CoV-2 spike, HR2 region): PDVDLGDISGINAS

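The parent was found by panning a naive human phage display library on the peptide. These sequences belong to a second round, designed from the earlier measurements on random variants of the parent. Their group label is 14H_GP_Gen (GP: Gaussian process model; Gen: genetic algorithm; a sequence that several methods proposed may carry one label only). The assay is AlphaSeq: two haploid yeast populations carry antibody and antigen on their surface. After mating in shaken culture at 30 °C for 16 h, diploids were selected and their barcode pairs sequenced. Scores were corrected for input abundance and mapped to Kd with protein pairs of known affinity run in the same pool. The assay was run in six technical replicates.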

Each scFv is VH, three GGGGS repeats, VL, as in the parent Ab-14, and differs from it in the CDRs of the heavy chain only.
VH: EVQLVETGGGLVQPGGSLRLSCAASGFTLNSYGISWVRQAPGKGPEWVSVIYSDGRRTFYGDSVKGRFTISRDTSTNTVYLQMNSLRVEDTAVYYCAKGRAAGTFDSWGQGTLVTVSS
VL: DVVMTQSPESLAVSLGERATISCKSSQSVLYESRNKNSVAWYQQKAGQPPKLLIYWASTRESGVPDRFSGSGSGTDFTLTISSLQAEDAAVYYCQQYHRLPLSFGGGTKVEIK

Substitutions are numbered in sequence along the VH above, starting at 1 (not Kabat). Values are log10 of the apparent Kd in nM; lower means stronger binding. A pair that was not seen in that replicate is written "n.d."; this usually means weak binding, but a binder can also be missed. The parent sequence was in this pool as ten entries: three were never detected, three once, and four in most replicates, with averages from 0.34 to 2.37.

changes,log10 Kd (nM) by replicate,control signals
T28Q/G61Q/R100Q,n.d. n.d. n.d. n.d. n.d. n.d.,0/18
G26H/T28S/G61A/A101Q,n.d. n.d. n.d. n.d. n.d. n.d.,0/18
G26K/T28S/S53A,0.17 0.79 0.61 3.03 0.28 1.14,0/18
T28Q/S31E/A101M,0.36 0.69 0.70 0.14 0.25 0.68,0/18
T28E/G61Q/A101M/S107T,1.19 0.64 0.97 0.45 n.d. 0.87,0/18
T28D/G61Q/S63D/A101T,-0.12 0.20 0.27 0.53 0.07 -0.01,0/18
T28D/G61S/R100D,0.96 0.71 0.24 -0.08 -0.18 0.40,0/18
G26K/T28S/G61I/R100N,n.d. n.d. n.d. n.d. n.d. n.d.,0/18
T28S/S53A/R100Q/S107G,0.25 0.81 0.28 0.61 0.31 0.48,1/18 (2.88)
T28E/S31M/G61S/A101T,0.03 -0.04 -0.40 -0.22 0.16 -0.10,1/18 (1.94)
T28D/R100E/S107A,0.12 -0.04 -0.06 0.03 0.23 0.21,0/18
T28K/G61A/R100K/A101T,n.d. n.d. 1.46 n.d. n.d. n.d.,1/18 (2.45)
T28S/S31E/A101T/D106M,n.d. n.d. n.d. n.d. n.d. n.d.,0/18
T28D/G61A/S63M/A101Q,0.91 0.42 0.43 0.98 0.09 0.92,0/18
T28H/S53A/A101T,0.40 0.17 0.14 0.41 0.05 -0.09,1/18 (1.39)
T28Q/S31D/A101E/S107T,0.29 -0.23 -0.11 -0.10 0.05 -0.17,2/18 (2.67)
T28N/G61A/S63Q/R100N,0.82 0.80 0.56 0.52 0.61 0.90,0/18
G26Y/T28D/R100K/A101T,n.d. 1.53 0.90 0.64 1.07 1.55,1/18 (2.26)
T28D/S63R/R100W/A101T,1.13 0.23 -0.04 2.04 0.65 1.38,0/18
G26Q/T28E/S53A/R100K,n.d. n.d. 0.98 n.d. 0.83 1.23,0/18
T28E/S31E/A101L,0.36 0.47 0.03 -0.27 0.48 0.90,0/18
T28S/G61K/R100N/A101T,-0.14 -0.28 -0.01 -0.26 -0.46 -0.21,1/18 (1.98)
T28D/G61A/A101T/S107D,0.09 0.10 0.54 -0.14 -0.39 0.36,0/18
T28G/S31E/G61H/R100K,0.43 -0.58 0.06 -0.39 0.11 -0.06,1/18 (1.88)
T28Q/S31E/F59M,0.35 0.46 0.83 0.65 0.68 1.19,0/18
T28D/R56K/G61I/R100K,0.50 0.53 0.27 0.12 0.08 0.62,0/18
T28D/S63R/R100Q/S107L,2.16 0.89 1.40 0.77 1.58 1.02,1/18 (2.24)
T28S/G61D/R100K/A101E,0.03 -0.46 -0.31 -0.68 -0.55 0.16,0/18
T28D/G61V/A101T/S107A,0.80 0.16 -0.03 0.09 0.26 0.02,0/18
T28D/S31M/R56M/A101T,0.39 0.10 0.10 -0.12 -0.15 0.13,2/18 (2.40)
T28E/G61A/R100K/A101N,1.44 1.14 0.97 1.31 1.58 0.99,0/18
T28D/G61Q/S63Q/A101T,0.81 0.57 0.11 -0.01 0.30 0.92,0/18
T28N/G61A/S63K/A101T,0.63 n.d. 0.78 0.01 0.30 2.14,0/18
T28S/S31E/R100E/S107N,0.06 0.40 0.01 0.13 0.63 0.35,1/18 (1.96)
T28S/G61S/S63N/A101T,0.47 -0.22 -0.24 0.15 0.08 0.01,0/18
T28D/G61Q/R100S,-0.19 0.13 -0.71 -0.53 -0.48 -0.85,0/18
T28D/R56M/R100N,-0.13 -0.27 -0.39 -0.29 0.89 -0.09,1/18 (1.03)

The closing 4 entries, repeated:

{"changes": "T28S/S31E/R100E/S107N", "log10 Kd (nM) by replicate": "0.06 0.40 0.01 0.13 0.63 0.35", "control signals": "1/18 (1.96)"}
{"changes": "T28S/G61S/S63N/A101T", "log10 Kd (nM) by replicate": "0.47 -0.22 -0.24 0.15 0.08 0.01", "control signals": "0/18"}
{"changes": "T28D/G61Q/R100S", "log10 Kd (nM) by replicate": "-0.19 0.13 -0.71 -0.53 -0.48 -0.85", "control signals": "0/18"}
{"changes": "T28D/R56M/R100N", "log10 Kd (nM) by replicate": "-0.13 -0.27 -0.39 -0.29 0.89 -0.09", "control signals": "1/18 (1.03)"}

Nonspecific signal, from three strains lacking the peptide, appeared in 1% of pairings of all heavy chain designs, centred on 2.08 (5% of these signals below 0.84); values are not corrected for it. Also given: how often the same scFv was detected with the empty control strains, with their mean in brackets. Values of this round are not directly comparable with the first-round values of the same sequences. The authors' rule: three or more of the six replicates give a measured affinity, fewer mean a poor binder.